# Yeast mating assay 2: variants of the scFv Ab-91

The measurements come from Engelhart et al. 2022 (doi:10.1038/s41597-022-01779-4) through the FLAb antibody collection.

Target: peptide PDVDLGDISGINAS, taken from heptad repeat 2 (HR2) of SARS-CoV-2 spike.

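Phage display of a naive human antibody library on the peptide gave the parent. AAYL51 was designed without a model: most single CDR substitutions and a random sample of double and triple ones. The assay is AlphaSeq: two haploid yeast populations carry antibody and antigen on their surface. Binding brings cells together so that they mate, and sequencing counts the barcode pairs among the diploids. Each replicate has its own calibration line, from reference interactions of the BCL2 family. Mating was done three times.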

Parent: Ab-91, a human scFv built as VL, a (GGGGS)3 linker, VH. Only the CDRs of the heavy chain vary.
VL: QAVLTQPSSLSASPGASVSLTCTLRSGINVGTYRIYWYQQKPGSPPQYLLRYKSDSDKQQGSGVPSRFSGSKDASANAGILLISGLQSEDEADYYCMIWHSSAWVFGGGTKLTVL
VH: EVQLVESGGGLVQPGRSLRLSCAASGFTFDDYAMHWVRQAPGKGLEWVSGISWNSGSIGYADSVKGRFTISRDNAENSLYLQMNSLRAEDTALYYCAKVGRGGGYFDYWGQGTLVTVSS

Positions count from residue 1 of the parent VH; F27W puts W in place of F. The read-out is the apparent dissociation constant on a log10 scale (nM): the lower, the stronger. "ND" means that the variant was in the library but no mating with the target was seen in that replicate; the authors take this as a sign of poor binding, and no number exists. As a blank, each scFv also met three strains without target: over library AAYL51, 21% of these pairings were detected, typically at 4.54 and seldom below 3.26. For reference, the parent read 1.86 as the reference entry and 0.88 as a member of this library.

{"changes": "F27W/M34K/G103P", "log10 Kd (nM) by replicate": "ND ND ND"}
{"changes": "F27S/Y60T/K65Q", "log10 Kd (nM) by replicate": "ND 4.02 ND"}
{"changes": "D31G/I58A/V99G", "log10 Kd (nM) by replicate": "ND 4.62 ND"}
{"changes": "M34T/G100T", "log10 Kd (nM) by replicate": "ND ND ND"}
{"changes": "H35C/G56Y/Y108H", "log10 Kd (nM) by replicate": "4.55 ND 4.91"}
{"changes": "G56Y/D62S/S63F", "log10 Kd (nM) by replicate": "1.91 1.75 0.88"}
{"changes": "S55K/G104N/D107A", "log10 Kd (nM) by replicate": "4.98 5.61 5.42"}
{"changes": "G56P/D62K/G103E", "log10 Kd (nM) by replicate": "4.83 5.91 ND"}
{"changes": "D31H/S52T/D62G", "log10 Kd (nM) by replicate": "3.65 2.92 3.71"}
{"changes": "F29T/S55L/R101N", "log10 Kd (nM) by replicate": "4.76 ND ND"}
{"changes": "T28H/S57H/D107I", "log10 Kd (nM) by replicate": "ND ND ND"}
{"changes": "M34V/G102C/G103P", "log10 Kd (nM) by replicate": "3.37 4.53 4.43"}
{"changes": "F29A/M34A/S57G", "log10 Kd (nM) by replicate": "ND ND ND"}
{"changes": "A33Y/G50L/V99F", "log10 Kd (nM) by replicate": "ND ND ND"}
{"changes": "F27Y/F29D/A33G", "log10 Kd (nM) by replicate": "4.99 4.81 5.16"}
{"changes": "T28V/K65H/G100C", "log10 Kd (nM) by replicate": "ND ND ND"}
{"changes": "I51Q/N54Q", "log10 Kd (nM) by replicate": "4.55 ND ND"}
{"changes": "I58H/G103M", "log10 Kd (nM) by replicate": "ND ND ND"}
{"changes": "T28N/S52W/S57E", "log10 Kd (nM) by replicate": "ND ND ND"}
{"changes": "G59N/F106P/D107Y", "log10 Kd (nM) by replicate": "ND ND ND"}
{"changes": "S52T/S63R/D107Y", "log10 Kd (nM) by replicate": "4.19 ND ND"}
{"changes": "I51M/G59R/Y108Q", "log10 Kd (nM) by replicate": "ND ND ND"}
{"changes": "A33Y/S52I/N54M", "log10 Kd (nM) by replicate": "5.15 5.78 ND"}
{"changes": "G26S/K65R/D107G", "log10 Kd (nM) by replicate": "4.38 4.35 ND"}
{"changes": "A33C/G59M/Y60C", "log10 Kd (nM) by replicate": "ND 5.20 ND"}
{"changes": "Y32A/S63V/F106N", "log10 Kd (nM) by replicate": "ND ND ND"}
{"changes": "A33L/H35A/F106L", "log10 Kd (nM) by replicate": "ND ND ND"}
{"changes": "Y60G/V99G/F106N", "log10 Kd (nM) by replicate": "ND 5.72 ND"}
{"changes": "A33G/H35V/G50P", "log10 Kd (nM) by replicate": "ND ND ND"}

Picked from the list: the 4 lowest averages where every replicate gave a value.

| changes | log10 Kd (nM) by replicate |
|---|---|
| G56Y/D62S/S63F | 1.91 1.75 0.88 |
| D31H/S52T/D62G | 3.65 2.92 3.71 |
| M34V/G102C/G103P | 3.37 4.53 4.43 |
| F27Y/F29D/A33G | 4.99 4.81 5.16 |